# The supplement of paper PMC11018630
# Where a name gives a salt, the structure may show the parent alone. ± gives the standard deviation of the averaged measurements. Most of the lowest values are listed elsewhere, so they are rarer here than in the full data.
# System: RDEB dermal fibroblasts EB71
# Assay: day of extracellular matrix detachment from plate (days); higher = delayed detachment (less fibrotic matrix)
# Conditions: compound concentration: 10 uM
row,SMILES,day of extracellular matrix detachment from plate
1,CC[C@H](C)[C@H](NC(=O)[C@H](CCC(=O)O)NC(=O)C(CCC(=O)O)NC(=O)[C@H](Cc1ccccc1)NC(=O)C(CC(=O)O)NC(=O)CNC(=O)C(CC(N)=O)NC(=O)CNC(=O)CNC(=O)CNC(=O)CNC(=O)[C@@H]1CCCN1C(=O)[C@H](CCCNC(=N)N)NC(=O)[C@@H]1CCCN1C(=O)[C@@H](N)Cc1ccccc1)C(=O)N1CCC[C@H]1C(=O)N[C@@H](CCC(=O)O)C(=O)N[C@@H](CCC(=O)O)C(=O)N[C@@H](Cc1ccc(O)cc1)C(=O)N[C@@H](CC(C)C)C(=O)O (stereo partly specified) [Bivalirudin Trifluoroacetate],19 ± 3
